Assay results: ChEMBL document CHEMBL3044733, “Synthesis of novel phosphorothioates and phosphorodithioates and their differential inhibition of cholinesterases” (2009)

Test: Selectivity ratio of IC50 for horse serum butyrylcholinesterase to IC50 for electric eel acetylcholinesterase

Compound | Ratio IC50
CCOP(=O)(OCC)SCCN1C(=O)c2ccccc2C1=O | 5.4
CCOP(=O)(OCC)SCc1ccc2ccccc2n1 | 15.7
